Molecular target: T1, Oxytocin receptor (Rattus norvegicus, UniProt P70536)
T1 sequence (P70536 whole entry): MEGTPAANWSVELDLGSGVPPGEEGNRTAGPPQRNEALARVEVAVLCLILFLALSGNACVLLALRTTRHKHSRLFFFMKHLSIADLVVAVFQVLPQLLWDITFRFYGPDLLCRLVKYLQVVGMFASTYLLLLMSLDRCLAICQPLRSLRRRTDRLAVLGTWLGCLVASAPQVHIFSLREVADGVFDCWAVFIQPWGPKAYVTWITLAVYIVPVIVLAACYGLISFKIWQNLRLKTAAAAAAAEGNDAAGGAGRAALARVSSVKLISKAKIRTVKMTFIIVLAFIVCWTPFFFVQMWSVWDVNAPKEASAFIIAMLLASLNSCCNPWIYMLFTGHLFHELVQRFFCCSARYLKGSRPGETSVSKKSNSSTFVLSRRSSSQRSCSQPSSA
Test: Binding affinity was evaluated by measuring the displacement of [3H]-OT (oxytocin) from specific binding sites in uterine tissue obtained from rats

Compound | Ki [nM]
COc1cc(OC2CCN(C(C)=O)CC2)ccc1C(=O)N1CCC(N2C(=O)OCc3ccccc32)CC1 | 19
CC(=O)N1CCCCC1CCOc1ccc(C(=O)N2CCC(N3C(=O)OCc4ccccc43)CC2)cc1 (configuration not stated) | 130

Reference: ChEMBL document CHEMBL1128191, “1-(1-[4-[(N-acetyl-4-piperidinyl)oxy]-2-methoxybenzoyl]piperidin-4-yl)-4H-3,1-benzoxazin-2(1H)-one (L-371,257): a new, orally bioavailable, non-peptide oxytocin antagonist” (J Med Chem, 1995)
